Target: ω fragment of β-galactosidase (deletion mutant missing amino acids 11-41) (Escherichia coli (strain K12)) [β-galactosidase: P00722]
Test: cell-based or functional assay

β-galactosidase activity (complementation in C2C12 cells) (fold less activity): 100
Substance: β-galactosidase amino acids 5-49 fused to the N-terminus of GFP (from UniProt P00722 5-49; P42212 1-238)

Source: US20050287522A1
